Measured values from patent US20230190927A1, “ENPP1 INHIBITORS AND METHODS OF MODULATING IMMUNE RESPONSE” (Angarus Therapeutics, Inc., priority 2020, published 2023).

Tested on: 4T1 tumor
Assay: 4T1 tumor model: IR with compound 1, cGAMP and/or anti-CTLA-4, tumor volume and survival
Type: in vivo, mouse
Experimental: Tumor volumes were recorded every other day.

[1] = 20 Gy IR, compound 1 in addition to cGAMP intratumorally on day 2, 4 and 7

`COc1cc2ncnc(N3CCC(CCP(=O)(O)O)CC3)c2cc1OC` [Compound 1] was tested, and the survival [1] was “prolonged survival”, the tumor shrinkage [1] was “synergistically shrunk tumors” and the “tumor shrinkage effect over IR treatment” value (20 Gy IR, single agent intratumorally on day 2, 4 and 7 after IR (100 μL of 100 μM compound 1 or 10 μg cGAMP)) was “enhanced tumor shrinkage effects of IR treatment, although not significantly”. The “anti-tumor effect (survival)” value (IR pretreatment, 1 mM compound 1 intratumorally with 200 μg anti-CTLA-4 intraperitoneally) was “exerted significant synergistic effects” and the survival (without IR, 1 mM compound 1 intratumorally with 200 μg anti-CTLA-4 intraperitoneally) was “had no effect on prolonging survival”.
